Experiments:
IDH1 [1] = target: T1, IDH1 (Homo sapiens, UniProt O75874); assay: IC50 dose-response curve fits (Example 1, assay not described); assay type: biochemical; conditions: curve fit
IDH1 [2] = target: T1, IDH1; assay: IC50 in two trials and mean (Example 1, assay not described); assay type: biochemical
wtIDH1 = target: T2, wtIDH1 (Homo sapiens, UniProt O75874); assay: HTRF IDH1 binding assay (displacement of probe IK-1-012); conditions: 200 nM probe; read-out: IC50 of competitive displacement of IK-1-012 from wtIDH1
T2 construct: purchased ActiveMotif

By UniProt entry, the sequences of proteins in these tests, tags left out.
UniProt O75874, whole entry: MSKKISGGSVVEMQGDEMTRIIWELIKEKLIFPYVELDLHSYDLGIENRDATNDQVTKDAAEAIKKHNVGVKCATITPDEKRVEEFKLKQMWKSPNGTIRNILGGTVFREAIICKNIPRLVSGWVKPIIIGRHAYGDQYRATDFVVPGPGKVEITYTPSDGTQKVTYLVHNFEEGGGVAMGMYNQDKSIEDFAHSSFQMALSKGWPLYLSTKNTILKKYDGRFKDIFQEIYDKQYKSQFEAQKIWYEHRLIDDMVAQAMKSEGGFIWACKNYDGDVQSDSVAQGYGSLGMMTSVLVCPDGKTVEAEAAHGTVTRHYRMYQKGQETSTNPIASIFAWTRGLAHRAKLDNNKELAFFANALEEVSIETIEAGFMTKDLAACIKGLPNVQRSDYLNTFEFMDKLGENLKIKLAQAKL

IC50 (IDH1 [1]): 22 nM
IC50 (IDH1 [2]; Trial 1, read-out: IC50, Trial 1): 25 nM
IC50 (IDH1 [2]; Trial 2, read-out: IC50, Trial 2): 27 nM
IC50 (IDH1 [2]; mean of the trials, read-out: Mean IC50): 26 nM
IC50 (wtIDH1): 1.9 nM
Compound: C[C@@H]1CN(C(=O)c2ccc[nH]2)Cc2c(C(=O)Nc3cccc([C@@H](C)O)c3)nn(Cc3ccc(F)cc3)c21 [FSM-206, reference compound]

From US20250092035A1, “ISOCITRATE DEHYDROGENASE 1 INHIBITORS AND METHODS OF USE THEREOF” (THE WISTAR INSTITUTE OF ANATOMY AND BIOLOGY, priority 2022, published 2025)
